Consider 3 compounds from US11066396B2 (priority 2016, dated 2021).

Amino acid sequences for entries named in this document (tags omitted). A change or cut given only in a name is not applied to a line headed by its entry.
UniProt Q13547, whole entry: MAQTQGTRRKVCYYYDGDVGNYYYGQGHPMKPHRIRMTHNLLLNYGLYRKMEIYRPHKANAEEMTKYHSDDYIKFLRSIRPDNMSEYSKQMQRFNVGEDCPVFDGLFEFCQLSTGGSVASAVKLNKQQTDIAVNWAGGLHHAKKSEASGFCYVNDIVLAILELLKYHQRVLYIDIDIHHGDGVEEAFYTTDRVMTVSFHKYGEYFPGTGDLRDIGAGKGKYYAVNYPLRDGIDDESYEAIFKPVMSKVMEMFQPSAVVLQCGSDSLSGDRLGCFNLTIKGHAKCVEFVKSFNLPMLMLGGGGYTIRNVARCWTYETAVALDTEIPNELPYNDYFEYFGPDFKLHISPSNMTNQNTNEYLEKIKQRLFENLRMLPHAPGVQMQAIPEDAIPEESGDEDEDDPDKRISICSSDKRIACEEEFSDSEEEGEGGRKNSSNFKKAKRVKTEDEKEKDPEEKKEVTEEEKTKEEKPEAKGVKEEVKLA
UniProt Q9BY41: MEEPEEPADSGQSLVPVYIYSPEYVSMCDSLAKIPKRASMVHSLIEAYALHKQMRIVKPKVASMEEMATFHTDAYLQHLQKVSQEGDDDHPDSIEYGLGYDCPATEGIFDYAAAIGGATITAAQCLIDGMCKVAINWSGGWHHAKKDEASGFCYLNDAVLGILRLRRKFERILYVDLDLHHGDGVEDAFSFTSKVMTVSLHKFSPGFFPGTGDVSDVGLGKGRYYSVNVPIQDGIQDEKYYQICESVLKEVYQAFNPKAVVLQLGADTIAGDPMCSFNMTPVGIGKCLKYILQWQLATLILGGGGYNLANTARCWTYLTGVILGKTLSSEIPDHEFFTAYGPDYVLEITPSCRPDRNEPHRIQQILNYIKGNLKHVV

Broadly, the IC50 is the point on the concentration scale where inhibition reaches its midpoint.

Where two headings read alike, the source gives them in different places.

Test [1] concerns the target T1, HDAC1 (Homo sapiens (Human), UniProt Q13547). In words: biochemical.
The target of a further test is HDAC8 (Homo sapiens (Human), UniProt Q9BY41). As to the kind of experiment: biochemical.
Test [2] concerns the target T1, HDAC1. To be noted: read-out: HDAC1 IC50.

Turning to `CN1CCN(c2ccc(-c3noc(C(F)(F)F)n3)cn2)C(c2cccc(F)c2)C1=O` (racemic) [Example 36, 3-(3-fluorophenyl)-1-methyl-4-(5-(5-(trifluoromethyl)-1,2,4-oxadiazol-3-yl)pyridin-2-yl)piperazin-2-one], the values for the IC50 against HDAC1 [1] and against HDAC8 were 16 µM and 5.3 µM, respectively.
In the case of `O=C(C(Cc1ccc(-c2noc(C(F)(F)F)n2)cn1)c1cccc(C(F)(F)F)c1)N1CCS(=O)(=O)CC1` (stereo not shown) [Example 169, 1-(1,1-Dioxidothiomorpholino)-3-(5-(5-(trifluoromethyl)-1,2,4-oxadiazol-3-yl)pyridin-2-yl)-2-(3-(trifluoromethyl)phenyl)propan-1-one], the IC50 on HDAC1 [2] turned out to be 5.2 µM.
Regarding `O=C(C(Cc1ccc(-c2noc(C(F)(F)F)n2)cn1)c1cccc(C(F)(F)F)c1)N1CCS(=O)(=O)CC1` (single isomer, unassigned) [Example 171, (R or S)-1-(1,1-Dioxidothiomorpholino)-3-(5-(5-(trifluoromethyl)-1,2,4-oxadiazol-3-yl)pyridin-2-yl)-2-(3-(trifluoromethyl)phenyl)propan-1-one], the IC50 against HDAC1 [1] turned out to be 5.5 µM.
